# Reference: ChEMBL document CHEMBL1687940, “Quinazoline sulfonamides as dual binders of the proteins B-cell lymphoma 2 and B-cell lymphoma extra long with potent proapoptotic cell-based activity” (J Med Chem, 2011)
# Amino acid sequences for entries named in this document (tags omitted).
# UniProt Q07820, whole entry: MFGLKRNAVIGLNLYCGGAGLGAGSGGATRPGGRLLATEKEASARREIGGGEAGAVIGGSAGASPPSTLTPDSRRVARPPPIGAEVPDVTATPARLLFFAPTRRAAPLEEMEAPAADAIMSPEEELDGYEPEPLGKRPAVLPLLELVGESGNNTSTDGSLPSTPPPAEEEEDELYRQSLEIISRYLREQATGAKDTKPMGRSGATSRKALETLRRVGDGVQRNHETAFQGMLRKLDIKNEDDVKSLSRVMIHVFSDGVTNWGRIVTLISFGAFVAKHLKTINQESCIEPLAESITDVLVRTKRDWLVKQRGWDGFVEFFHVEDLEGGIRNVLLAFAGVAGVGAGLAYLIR
# Molecular target: Induced myeloid leukemia cell differentiation protein Mcl-1 (Homo sapiens, UniProt Q07820)
# Test: Displacement of wild type mBimBH3 from Mcl-1 by solution competition assay
# Method in brief: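 Solution competition on Biacore 3000. Recombinant pro-survival protein (10 nM; Bcl-2 ΔC22, Bcl-w C29S/A128E ΔC29, human/mouse chimeric Mcl-1 ΔN170 ΔC23) preincubated ≥2 h with an 11-point 2-fold compound dilution series in HEPES/NaCl/EDTA/Tween running buffer, pH 7.4. Mixture then injected over CM5 chip bearing immobilized wild-type mBimBH3 peptide; percentage bound gives IC50.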
smiles,measurement,value
CN(C)CC[C@H](CSc1ccccc1)Nc1ccc(S(=O)(=O)NC(=O)c2ccc(N3CCN(Cc4ccccc4-c4ccc(Cl)cc4)CC3)cc2)cc1[N+](=O)[O-] [ABT 737],IC50,> 1 µM
